Results as given in patent publication US20100160219A1, “Novel Polypeptides Inducing Dendritic Cell Migration, as Well as Medicines and Pharmaceutical Compositions Containing Same” (priority 2006, published 2010).

System: dendritic cells
Assay: In vitro assay of dendritic cell migration
Format: cell-based
Settings: cells incubated 24 hours with the fraction or polypeptide, then migration towards MIP-3β; ESAs at final dilution 1:20; index relative to untreated control

B1: SEQ ID NO.13: polypeptide of SEQ ID NO.3 (fragment of GRA5-RH, without the C-terminal threonine) fused with GST (protein)
chain: SPILGYWKIKGLVQPTRLLLEYLEEKYEEHLYERDEGDKWRNKKFELGLEFPNLPYYIDGDVKLTQSMAIIRYIADKHNMLGGCPKERAEISMLEGAVLDIRYGVSRIAYSKDFETLKVDFLSKLPEMLKMFEDRLCHKTYLNGDHVTHPDFMLYDALDVVLYMDPMCLDAFPKLVCFKKRIEAIPQIDKYLKSSKYIAWPLQGWQATFGGGDHPPKSDLIEGRGIPGGSTRDVGSGGDDSEGARGREQQQVQQHEQNEDRSLFERGRAAVTGHPVREFIVTD
modifications: GST fusion; Fusion protein of glutathione S-transferase and amino acids 26-75 of the sequence of GRA5 protein from RH strain of toxoplasma gondii
migration of dendritic cells (migration-inducing activity, migration index): possesses the activity
